In patent publication US12686694B2, “Method of extracting carbonic acid, aliphatic acids, esters and alcohols from an aqueous medium” (EVONIK OPERATIONS GMBH, priority 2019, dated 2026):

Assay: Extraction of hexanol from aqueous solution with trialkylphosphine in alkane or pure trialkylphosphine
Format: physicochemical

- Equilibrium pH (hexanol extraction with buffer in aqueous phase): 5.77
- Aq. Hexanol conc. (before) (with ammonium acetate buffer in aqueous phase, mass ratio 9 to 1): 4.15 g/kg
SMILES: CCCCCCCCCCCCCC [none (100% tetradecane), tetradecane]
